pKi: −log10 of the molar value.
Molecular target: Adenosine receptor A3 (Homo sapiens, UniProt P0DMS8)

By UniProt entry, the sequences of proteins in these tests, tags left out.
UniProt P0DMS8, whole entry: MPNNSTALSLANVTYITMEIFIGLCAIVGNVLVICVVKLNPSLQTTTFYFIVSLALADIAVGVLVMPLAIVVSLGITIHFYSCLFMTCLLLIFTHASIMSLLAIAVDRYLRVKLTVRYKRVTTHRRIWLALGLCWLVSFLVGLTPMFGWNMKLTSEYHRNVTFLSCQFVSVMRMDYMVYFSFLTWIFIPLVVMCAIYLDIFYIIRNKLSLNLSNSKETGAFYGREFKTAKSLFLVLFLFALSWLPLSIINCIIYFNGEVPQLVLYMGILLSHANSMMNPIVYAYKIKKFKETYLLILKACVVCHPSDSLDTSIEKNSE

Question: How did the pKi turn out when `O[C@@H]1[C@H](O)[C@@H]2C[C@@H]2[C@H]1n1cnc2c(NCc3cccc(Cl)c3)nc(Cl)nc21` was run?
Answer: Its pKi is 8.97.

From ChEMBL document CHEMBL1144175 (Bioorg Med Chem, 2008)
